The text below walks through data of PubChem BioAssay AID869 (SRMLSC, 2007).

The list shows a part of the results, in another mix than the full data. Activity calls are given as the source filed them.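 The calls were made as follows: active = inhibition over a set limit, the all-compound mean plus 3 SD, in both replicate runs; inconclusive = over that limit in just one replicate run; inactive = at or under that limit in both runs.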

The assay is described as follows: inhibitors of the yeast RAM network, pilot screen, dse1pr::URA3 reporter, 5-FOA selection (AID 869).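 Also: 0% = DMSO wells with no growth and 100% = 10 µM 1-NA-PP1 with full growth; RAM network block rescues cells from 5-FOA so hits raise OD615 growth.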 Particulars: S. cerevisiae dse1pr::URA3 5-FOA growth, OD615, 2 d; at 10 µM; active compounds read high; strain carries analog-sensitive mutant Cbk1 kinase.
Usually inhibition stands for the relative decrease from the control value, in per cent. Regarding `CP(=O)(Oc1ccccc1)N1CCOC1=O` (stereo not given), the inhibition was inactive: 3.34%.

In the case of `CP(=O)(Nc1ccc2c(c1)OCCO2)Oc1ccccc1` (stereo not given), the inhibition is inactive: 2.65%. Take `Cc1ccc(C)c(NP(C)(=O)Oc2ccccc2)c1` (stereo not given): the inhibition was inactive: 0.01%.

With `CP(=O)(NC(=O)Nc1ccccc1)Oc1ccccc1` (stereo not given), the inhibition was inactive: 1.29%. As for `Cc1ccc(NP(C)(=O)Oc2ccccc2)c(C)c1` (stereo not given), the inhibition was inactive: 0.475%.
